What was measured:
human A2a receptor = target: T1, human A2a receptor (Homo sapiens, UniProt P29274); experiment: fus1-β-galactosidase assay in yeast expressing human A2a adenosine receptor; format: cell-based
T1 construct: expressed in transfected cells; host or cells: Saccharomyces cerevisiae (CY8342 carrying mutant rat Galphas; plasmid pLPBX-A2a)

Sequences of proteins named here, by UniProt entry; tags and fusion partners are left off.
UniProt P30542, whole entry: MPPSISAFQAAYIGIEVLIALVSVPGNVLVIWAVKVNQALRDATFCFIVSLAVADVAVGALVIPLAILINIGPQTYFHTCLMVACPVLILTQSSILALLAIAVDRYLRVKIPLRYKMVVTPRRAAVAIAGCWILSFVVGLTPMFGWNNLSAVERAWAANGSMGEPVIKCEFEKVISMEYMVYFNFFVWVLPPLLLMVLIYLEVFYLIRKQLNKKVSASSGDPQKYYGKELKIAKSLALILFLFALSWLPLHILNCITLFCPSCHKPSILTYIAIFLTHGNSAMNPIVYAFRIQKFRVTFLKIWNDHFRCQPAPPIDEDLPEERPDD

[1] = target: T2, human A1 adenosine receptor (Homo sapiens, UniProt P30542); experiment: Fus1-β-galactosidase assay in yeast expressing human A1 adenosine receptor; format: cell-based; conditions: NECA concentration 10^−8 M; yeast co-expressing Ste18-Gγ2 chimera and GPA41-Gαi3; 5 h; CPRG substrate
T2 construct: yeast alpha-factor prepro leader (N, cleaved yes); expressed in transfected cells; host or cells: Saccharomyces cerevisiae (CY7967-derived strain CY12660; plasmid p5095)

Row | SMILES | antagonist activity in A2a yeast-based assay (human A2a receptor) | stimulation of β-galactosidase activity [1]
1 | CCCn1c(=O)c2[nH]c(C3CCCC3)nc2n(CCC)c1=O [DPCPX] | relatively inert | –
2 | CCNC(=O)[C@H]1O[C@@H](n2cnc3c(N)ncnc32)[C@H](O)[C@@H]1O [NECA, 5′-N-ethylcarboxamido-adenosine] | – | approximately 2 fold

Source: patent US20020015967A1, “FUNCTIONAL EXPRESSION OF ADENOSINE RECEPTORS IN YEAST” (priority 1998, published 2002)
